Data reported in patent US5298614A, “Size limited double stranded poly I poly(cytidylate/4-thiouridylate)” (Nippon Shinyaku Co. Ltd., priority 1986, dated 1994).
Marks after values point to notes of the source that are not given here.

Test system: interleukin 2 (lymph particles from spleen cells of BALB/c mice)
Test: Inducing activity of interleukin 2, 3H-thymidine incorporation with CTLL-2 or NK-7
Format: cell-based
Settings: samples 100α/ml; interleukin 2 5 units/ml; saline control 230

Interleukin 2: Interleukin 2
Incorporated Amount: 3578 DPM (× 10^3)
